## Antibody variant affinities, Ab-14 heavy chain, assay B

The measurements come from Li et al. 2023 (doi:10.1038/s41467-023-39022-2) through the FLAb antibody collection.

The target is the same throughout: PDVDLGDISGINAS, from the HR2 region of SARS-CoV-2 spike.

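The parent was found by panning a naive human phage display library on the peptide. This is the validation round: designs drawn from the data on random variants, tested in the same kind of assay. Group labels follow the data file (Ctrl: baseline library sampled from a position-specific scoring matrix, with some repeated check sequences; GP: Gaussian process model; HC: hill climbing; a sequence that several methods proposed may carry one label only). AlphaSeq pools MATa yeast showing the antibodies with MATalpha yeast showing the peptide. Pairs that bind mate more often; barcode pairs of the diploids are counted by sequencing. Scores were corrected for input abundance and mapped to Kd with protein pairs of known affinity run in the same pool. Each pool was mated in six replicate cultures.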

Each scFv is VH, the linker GGGGSGGGGSGGGGS, VL, as in the parent Ab-14, and differs from it in the CDRs of the heavy chain only.
VH: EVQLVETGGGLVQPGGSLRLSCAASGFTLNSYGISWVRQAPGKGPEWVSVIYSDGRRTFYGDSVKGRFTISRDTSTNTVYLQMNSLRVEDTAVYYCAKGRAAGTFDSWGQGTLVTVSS
VL: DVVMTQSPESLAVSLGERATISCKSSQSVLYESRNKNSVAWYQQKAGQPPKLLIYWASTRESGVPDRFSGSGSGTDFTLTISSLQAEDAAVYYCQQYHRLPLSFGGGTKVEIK

Variants are written as CDR1, CDR2 and CDR3 of the heavy chain (limits as in the source). Parent: GFTLNSYGIS, VIYSDGRRTFYGDSVK, GRAAGTFDS.
Numbers give log10(Kd / nM), so 0 is 1 nM and 3 is 1 µM. Smaller is tighter.
"ND" means that the variant was in the library but no mating with the target was seen in that replicate; the authors take this as a sign of poor binding, and no number exists.
In the paper, a design with two or fewer of six values counts as a poor binder.
A sequence measured in both rounds can read differently, since the two assays cover different ranges.
Empty control strains, which show no peptide, gave a signal in 1% of pairings with all heavy chain designs; the median was 2.08 and 95% of these signals were weaker than 0.84. No background was subtracted. The control count says in how many pairings with the empty strains this scFv gave a signal, with their mean in brackets.
Where one sequence has several entries in the source, the replicates are listed entry by entry, parted by semicolons.

CDR-H1,CDR-H2,CDR-H3,group,"replicates, log10 nM",control signals
GFTLNSYGIS,VIYSDGRRTFYGDSVK,GYGSGTFDS,Ctrl,ND / ND / ND / ND / ND / ND; ND / ND / ND / ND / ND / ND; ND / ND / ND / ND / ND / ND; ND / ND / ND / 3.55 / ND / ND; ND / ND / ND / ND / ND / ND,5 of 90 (2.34)
GFHLNSYGIS,VIYSDGRRTFYGDSVK,GRAAGTFDD,Ctrl,ND / ND / ND / ND / ND / ND,0 of 18
GFQLNSYGIS,VIYSDGRRTFYGDSVK,GRFAKTFDS,Ctrl,ND / ND / ND / ND / ND / ND,0 of 18
GFTLNEYGIS,VIYSDGRRTFYTDSVK,GRAAGTFDS,Ctrl+GP_HC,0.29 / 0.22 / 0.07 / 0.22 / 0.03 / 0.17; 0.03 / 0.30 / -0.03 / -0.27 / 0.01 / -0.12,1 of 36 (2.01)
HFTLSSYGIS,VIYSDGRRTAYLDSVK,GRVAGTFDS,Ctrl,ND / 2.32 / ND / 1.82 / 2.05 / 1.55,2 of 18 (1.61)
QFTLNSYGIS,VQYSDGRRTQYGDSVK,GRQAGHFDS,Ctrl,ND / ND / ND / ND / ND / ND,0 of 18
GFTLNSYGIS,VIYSDGRRTFYGDSVK,GGAAGTFPS,Ctrl,ND / ND / ND / ND / ND / ND,0 of 18
GFTLNSYGIS,VIYSDGRRTFYNDSVK,GDAAGTFDS,Ctrl,2.55 / 1.77 / 2.55 / 1.94 / 2.47 / 2.39,1 of 18 (3.13)
GFTLNSYGIS,VIYSDGRRLAYSDSVK,GRQAGTFDS,Ctrl,1.78 / 0.94 / -0.06 / 0.83 / 0.64 / 0.79,0 of 18
GFWLNSYGIS,VIYSDGRRTAYGDKVK,GTAAGTFDS,Ctrl,-0.08 / -0.50 / -0.53 / -0.45 / -0.30 / 0.10,0 of 18
GFTPNSYGIS,VIYSDGRRTFYGDSVR,ERAAGTFDS,Ctrl,ND / ND / ND / ND / ND / ND,1 of 18 (1.06)
GFTLNEYGIS,VIYSDGRRTFYGDSVK,GRAAGTPDS,Ctrl,1.39 / -0.31 / -0.10 / -0.04 / 0.17 / -0.18,0 of 18
GFTLNSYGIS,VIYADGRRTFYGDSVK,GRAAQTFRS,Ctrl,ND / ND / ND / ND / ND / ND,0 of 18
GFTLNDYGIS,VIYSDGRRTFYSDSFK,GGAYGKFDS,Ctrl,ND / ND / ND / ND / ND / ND,0 of 18
GFDLNSYGIS,VIYSDGRRTFYGDSVV,WRLAGMFDN,Ctrl,ND / ND / ND / ND / ND / ND,0 of 18
GFTLNSYGIS,VIYSDGRRTFYTDSVK,GRVAGTFDS,Ctrl,0.55 / 1.06 / ND / 0.87 / ND / 0.75,0 of 18
DFTLQSYGIS,VIYSDGRRTFYGDSVK,GRAAGTFDS,Ctrl,ND / ND / ND / 1.58 / 1.61 / ND,1 of 18 (2.25)
GFTLNSYGYS,VIYSDGRRTFYGDSVK,GRAAGTFDS,Ctrl,ND / ND / ND / ND / ND / ND,0 of 18
GFGLNSYGIH,VIYSDGRRTFYGDSVK,GREAGTFDQ,Ctrl,ND / ND / ND / ND / ND / -0.03,0 of 18
GFTLNKYGIS,VIYSDGRRTFYGDDVK,GRAAGTFDS,Ctrl,ND / ND / ND / ND / 1.29 / ND,0 of 18
GFELNSYGIS,VIYSDGRRTFYGDSVK,GFVAGTFDS,Ctrl,1.12 / 0.52 / 0.11 / 0.10 / 0.16 / 0.86,0 of 18
GFTLNSYGIS,VIYADGRRTFYGDSVK,GHAALGFDS,Ctrl,ND / ND / ND / ND / ND / ND,0 of 18
GFTLNSYGIS,VIYSDGRRTFYGDSVV,GREAGTFDS,Ctrl,1.80 / 1.02 / 1.34 / 0.91 / 2.01 / 1.51,0 of 18
GFTLNEYGIT,VIYSDGRRTFYGDSVK,GRAAGTGDS,Ctrl,ND / ND / ND / ND / ND / ND,0 of 18
GFTLLSYGIS,VIYSDGCRTFYGDSFK,GRAAGTFDL,Ctrl,ND / ND / ND / ND / ND / ND,0 of 18
GFTLNSYGIS,VIYADGRRVWYSDSVK,GRAAGPFCQ,Ctrl,ND / ND / ND / ND / ND / ND,0 of 18
GFTLNMYGIS,VIYSDGRRTFYGDKVK,GRAAGTFDS,Ctrl,ND / ND / ND / ND / 3.35 / ND,0 of 18
GFQLNSYGIS,VIYSDGRRTFYGLSVK,GRAAGTFDS,Ctrl,ND / ND / ND / ND / ND / ND,0 of 18
GFTLNSYGIS,VIYSDGRRTSYGDSVK,GREAGRFDS,Ctrl,ND / ND / ND / ND / ND / ND,0 of 18
GFWLNSYGIS,VIYSDGRRTFYGDSVK,GRAAGTFDS,Ctrl,2.34 / ND / 2.34 / ND / ND / ND,0 of 18
GFDLNSYGIS,VIYSDGRRTFYGDSVK,GRAIGTFDS,Ctrl,ND / ND / ND / ND / ND / ND,0 of 18
GFTLESYGIS,VIYSDGRREFYGDSVK,GRAAQTFDS,Ctrl,ND / ND / ND / ND / ND / ND,0 of 18
GFTLSSYGIS,VIYSAGRRTFYGDSVK,GRAAGTFDS,Ctrl,ND / ND / ND / ND / ND / ND,0 of 18
GFTLNSYGIS,VIYSDGRRTFYGDSVK,HRAAGTFDS,Ctrl,ND / ND / ND / ND / ND / ND,0 of 18
GFTLSSYGIS,VIYSDGRRTFYSDSVK,DRIKGTFDS,Ctrl,ND / 2.28 / ND / 1.47 / 1.73 / 1.47,0 of 18
GFELNSYGIS,VIYSDGRRTFYGDSVK,SRAAGTFNS,Ctrl,ND / ND / ND / ND / ND / ND,0 of 18
GFTLNSYGIS,VIYSDGRRTFYSDSVK,GNECGTFDS,Ctrl,ND / ND / ND / ND / ND / ND,0 of 18
GFHLNEYGIS,VIYSDGRRTFYGDSVK,GREAGTFDS,Ctrl,-0.04 / -0.25 / -0.12 / 0.17 / -0.36 / 0.45,0 of 18

The 2 strongest on average among those seen in every replicate, once more:

| CDR-H1 | CDR-H2 | CDR-H3 | group | replicates, log10 nM | control signals |
|---|---|---|---|---|---|
| GFWLNSYGIS | VIYSDGRRTAYGDKVK | GTAAGTFDS | Ctrl | -0.08 / -0.50 / -0.53 / -0.45 / -0.30 / 0.10 | 0 of 18 |
| GFHLNEYGIS | VIYSDGRRTFYGDSVK | GREAGTFDS | Ctrl | -0.04 / -0.25 / -0.12 / 0.17 / -0.36 / 0.45 | 0 of 18 |